Experiments:
[1] = biological target: T1, Toxoplasma gondii dihydrofolate reductase (Toxoplasma gondii, UniProt Q07422); assay type: biochemical; details: ratio of IC50 values; cmpds 6 and 7 from mean values
T1 sequence (Q07422 1-610): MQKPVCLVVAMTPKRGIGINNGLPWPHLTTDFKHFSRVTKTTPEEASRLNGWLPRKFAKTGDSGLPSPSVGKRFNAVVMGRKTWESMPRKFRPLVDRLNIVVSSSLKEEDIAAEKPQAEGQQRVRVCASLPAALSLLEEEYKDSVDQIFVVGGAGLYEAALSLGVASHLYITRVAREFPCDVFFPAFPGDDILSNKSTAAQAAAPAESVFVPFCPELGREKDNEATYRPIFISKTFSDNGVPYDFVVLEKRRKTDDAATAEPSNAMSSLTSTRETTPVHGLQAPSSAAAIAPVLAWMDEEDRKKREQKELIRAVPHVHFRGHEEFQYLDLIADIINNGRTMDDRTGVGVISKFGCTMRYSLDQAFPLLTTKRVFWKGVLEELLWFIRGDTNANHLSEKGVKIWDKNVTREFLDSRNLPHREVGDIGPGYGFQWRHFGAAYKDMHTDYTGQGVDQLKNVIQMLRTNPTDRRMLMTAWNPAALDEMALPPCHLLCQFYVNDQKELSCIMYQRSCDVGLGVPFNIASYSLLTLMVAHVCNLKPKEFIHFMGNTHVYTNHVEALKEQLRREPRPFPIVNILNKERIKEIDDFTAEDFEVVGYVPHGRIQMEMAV
Experimental: (§1) Compounds of the invention were tested for inhibition of dihydrofolate reductase (DHFR) from rat liver, Pneumocystis carinii and […] gondii. […] The DHFR inhibition assay was conducted by the procedures disclosed in Broughton, M. C. et al., Antimicrob.

[2] = biological target: T2, Pneumocystis carinii dihydrofolate reductase (Pneumocystis carinii, UniProt P16184); assay type: biochemical; details: ratio of IC50 values; cmpds 6 and 7 from mean values
T2 sequence (P16184 1-206): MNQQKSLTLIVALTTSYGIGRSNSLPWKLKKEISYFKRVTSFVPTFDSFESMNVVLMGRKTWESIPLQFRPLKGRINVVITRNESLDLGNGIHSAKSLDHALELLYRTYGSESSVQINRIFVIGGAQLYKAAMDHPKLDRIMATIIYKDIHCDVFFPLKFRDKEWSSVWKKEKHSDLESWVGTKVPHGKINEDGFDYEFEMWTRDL
Experimental: as §1

Nc1nc(N)c2nc(CN3c4ccccc4Oc4ccccc43)cnc2n1 [Example 4, N-[(2,4-Diaminopteridin-6-yl)methyl]phenoxazine]
selectivity ratio rat liver/ T. gondii liver [1]: 5.9
selectivity ratio rat liver/ P.carinii [2]: 3.8

From patent US7056911B1, “Dibenz[B,F]azepine compounds, pharmaceutical compositions comprising same and methods of use thereof” (Dana-Farber Cancer Institute, priority 1999, dated 2006)
